Data as given in patent US4277465A, “Adjuvant for promoting absorption of therapeutically active substances through the digestive tract” (Kyoto Yakuhin Kogyo Kabushiki Kaisha, priority 1978, dated 1981).

Assay: Rectal insulin suppository with Compound 3, blood glucose concentration (glucoseoxidase method)
Settings: control: insulin alone added to base
Protocol: The test was conducted by the glucoseoxidase method. […] The largest depression of blood glucose from the pre-medication level was expressed in % response.

Substance: insulin [reference compound]
- absorption of insulin (in words): no absorption of insulin
